Assay results from patent US20210290732A1, “GLP-1R and GCGR Agonists, Formulations, and Methods of Use” (Spitfire Pharma LLC, priority 2020, published 2021).
“And” between values parts separate entries of the source, which are not always exact repeats. Identical values can stand only once. “Also recorded” adds a separate entry of the source. Like-named read-outs stand apart in the source and are kept apart here.

How the values were obtained:
[1] = plasma protein binding by ultracentrifugation, dog plasma; format: in vitro ADME; conditions: pH 7.4, 15000 ng/mL, 37° C., 6 hours
Source text: (§1) Such non-covalent binding to albumin is anticipated to slow down the degradation of peptide in plasma and results in decreased renal clearance. […] Pooled plasma was obtained from at least three Sprague Dawley rats, beagle dogs, and cynomolgus monkeys. Pooled human plasma was obtained from three human males (that reportedly had not taken any medication in the previous 7 days before collection). K2EDTA was used as the anticoagulant. The pH of each pool of plasma was adjusted, if needed, to approximately pH 7.4 with hydrochloric acid or sodium hydroxide. Ultracentrifugation was performed using polycarbonate ultracentrifugation tube placed in a S80 AT2 rotor at 37° C. at 357000×g for 6 hours to achieve separation of PUC (supernatant) from plasma proteins. After centrifugation, the PUC was analyzed by LC MS for the calculation of protein binding. Protein Binding was evaluated as Percent unbound=(Cu/Co)×100 and Percent bound=100-percent unbound where Co is the concentration of test article in plasma prior to ultracentrifugation (ng/mL) and Cu is the concentration of test article in plasma in the ultracentrifugate (ng/mL).

plasma proteins of dog = assay: as above; format: in vitro ADME
Source text: as §1

plasma proteins = assay: as above; format: in vitro ADME; conditions: beagle, pooled plasma, pH 7.4, 15000 ng/mL, 37° C., 6 hours, read-out: mean percent protein binding (converted)
Source text: as §1

db/db mice = assay: single-dose blood glucose, body weight and food consumption in db/db mice; format: in vivo, mouse
Method: A. In vivo assays using db/db mice. About seventy five (75) BKS.Cg-m+/+Leprdb/J (Jackson Labs stock number 000642) male (“db/db”) mice at the age of 7-9 weeks of age were used in these studies, and maintained using standard animal care procedures. Studies initiated after one-week acclimation to facility conditions. On the morning of study day 0, mice were weighed and fasted for 4 hrs. Blood glucose was measured by glucometer using standard procedures. At least fifty-four (54) mice were selected based on body weights and those with blood glucose levels ≥300 mg/dL (i.e., diabetic) were randomly assigned into 6 groups (n=9). […] Clinical observations were conducted at receipt, prior to randomization, and daily from Days 1 to 5. Body weights were measured and recorded at receipt, prior to randomization, and daily from Days 1 to 5. Food consumption was measured and recorded daily from Days 1 to 5.
About seventy-five (75) BKS·Cg-m+/+Leprdb/J (Jackson Labs stock number 000642) male (“db/db”) mice at the age of 7-9 weeks of age were used in these studies and maintained using standard animal care procedures. Studies initiated after one-week acclimation to facility conditions. On the morning of study day 0, mice were weighed and fasted for 4 h Blood glucose was measured by glucometer using standard procedures. At least fifty-four (54) mice were selected based on body wt and those with blood glucose levels >300 mg/dL (i.e., diabetic) were randomly assigned into 6 groups (n=9). […] Body weights were measured and recorded at receipt, prior to randomization, and daily from Days 1 to 5. Food consumption was measured and recorded daily from Days 1 to 5. Blood samples for glucose analysis were collected pre-test (Day −3) and at 0, 2, 4, 8, 24, 48, 72, 96 and 120 hours following the single dose of the indicated compound.

[2] = CMC of Polysorbate 20 in F58 buffer pH 7.7 with added ALT-801 by surface tensiometry; format: physicochemical
Source text: (§2) CMC shifts are simply calculated as CMC in the presence of the ALT-801 less the CMC for the surfactant alone in solution.

[3] = pharmacokinetics in Yucatan miniature swine (SC and IV, 20 nmol/kg); format: in vivo, Yucatan miniature swine (Sus scrofa); conditions: Yucatan mini-swine
Method: The test animals were a total of four non-naïve male Yucatan miniature swine (Sus scrofa), housed singly. Body weights were from 73 to 75 kg. The housing room(s) were set to maintain a room temperature of 16 to 27° C. (61 to 81″F). Relative humidity was recorded. A 12-hr light/12-hr dark photoperiod was maintained. Room lights may have been turned on during the dark cycle to facilitate sample collection and/or other in-life activities. Animals were fed a maintenance amount of Purina S-9 swine diet. Clean, fresh water from an on-site deep water well was available ad libitum. General, in-cage observations were made at least twice daily (morning and evening) during the study period to assess general health, moribundity or mortality.
Dose concentration was 5.5 mg/mL (dose volume 0.015 mL/kg) for both treatments.
Whole blood samples for pharmacokinetic analysis ˜3 ml/time point) in tubes containing K2EDTA were collected via vascular access ports (VAP). Samples were maintained on wet ice until processing, ˜30 minutes or less post-collection. All samples were centrifuged for ˜15 minutes at ˜3000 rpm and ˜4° C. Resulting plasma was transferred evenly into two cryovials (primary and backup) and placed on dry ice. Plasma samples were stored frozen at ˜70° C., until primary samples were shipped for analysis.
The test animals were a total of four non-naïve male Yucatan mini-swine (Sus scrofa; body weight 73-81 kg), housed singly. Animals were fed a maintenance amount of Purina S-9 swine diet. General, in-cage observations were made at least twice daily (morning and evening) during the study period to assess general health, moribundity or mortality.
Dose concentration was 5.5 mg/mL (dose volume 0.015 mL/kg) for both treatments. Whole blood samples for pharmacokinetic analysis (˜3 mL/time point) were collected via vascular access ports into tubes containing K2EDTA. Samples were maintained on wet ice until processing, ˜30 minutes or less post-collection. All samples were centrifuged for ˜15 minutes at 3000 rpm and ˜4° C. Plasma samples were stored frozen at −70° C., until primary samples were shipped to Frontage Laboratories (Exton, Pa.) for bioanalysis by LC-MS/MS similarly to as outlined below.

[4] = CMC of Polysorbate 80 in F58 buffer pH 7.7 with added ALT-801 by surface tensiometry; format: physicochemical
Source text: as §2

plasma proteins of human = assay: plasma protein binding by ultracentrifugation, human plasma; format: in vitro ADME
Source text: as §1

[5] = 15000 ng/mL nominal, replicate, listed as ALT-801
[6] = 15000 ng/mL, 37° C., 6 hours, replicate, listed as ALT-801
[7] = 37° C., 6 hours, replicate, listed as ALT-801
[8] = db/db mice, 10 nmol/kg single sc dose
[9] = F58 buffer pH 7.7, Test # 1 and 2, listed as ALT-801
[10] = male, pig (miniature swine, Sus scrofa), plasma, 20 nmol/kg SC

SMILES: CC[C@H](C)[C@H](NC(=O)[C@H](Cc1ccccc1)NC(=O)[C@H](CCC(=O)O)NC(=O)[C@@H]1CCCCNC(=O)CC[C@H](NC(=O)[C@H](CC(=O)O)NC(=O)[C@H](CC(C)C)NC(=O)[C@H](Cc2ccc(O)cc2)NC(=O)[C@H](CCCCN)NC(=O)[C@H](CO)NC(=O)[C@H](Cc2ccc(O)cc2)NC(=O)[C@H](CC(=O)O)NC(=O)[C@H](CO)NC(=O)[C@@H](NC(=O)[C@H](Cc2ccccc2)NC(=O)[C@@H](NC(=O)CNC(=O)[C@H](CCC(N)=O)NC(=O)C(C)(C)NC(=O)[C@@H](N)Cc2c[nH]cn2)[C@@H](C)O)[C@@H](C)O)C(=O)N[C@@H](CCCCNC(=O)[C@H]2O[C@@H](OCCCCCCCCCCCCCCCCCC(=O)O)[C@H](O)[C@@H](O)[C@@H]2O)C(=O)N[C@@H](C)C(=O)N[C@@H](C)C(=O)N1)C(=O)N[C@@H](CCC(N)=O)C(=O)N[C@@H](Cc1c[nH]c2ccccc12)C(=O)N[C@@H](CC(C)C)C(=O)N[C@@H](CC(C)C)C(=O)N[C@@H](CCC(N)=O)C(=O)N[C@H](C(N)=O)[C@@H](C)O [SEQ ID NO: 1]
- fraction unbound [1]: 0.00205
- Initial Conc, Mean (plasma proteins of dog; 15000 ng/mL nominal): 6070 ng/mL
- Initial Conc, Rep (plasma proteins of dog; [5]): 5950 ng/mL and 6180 ng/mL and 7270 ng/mL
- Percentage of ALT-801 Bound, Mean (plasma proteins of dog; 15000 ng/mL, 37° C., 6 hours): 99.8%
- Percentage of ALT-801 Bound (plasma proteins of dog; [6]): 99.7% and 99.8% and 99.9%
- Percentage of ALT-801 Unbound (plasma proteins of dog; [6]): 0.265% and 0.223% and 0.126%
- Ultracentrifugate, Mean (plasma proteins of dog; 37° C., 6 hours): 12.4 ng/mL
- Ultracentrifugate, Rep (plasma proteins of dog; [7]): 16.1 ng/mL and 13.5 ng/mL and 7.62^b ng/mL
- Percent of Theoretical (plasma proteins of dog; initial conc vs 15000 ng/mL): 40.4%
- fraction unbound at 6 h, 15000 ng/mL (plasma proteins): 0.002
- glucoregulatory effect compared to semaglutide (db/db mice; db/db mice dose-finding assay): more potent and longer-acting than semaglutide
- blood glucose at 48 h (db/db mice; [8]): 153 mg/dL
- blood glucose at 72 h (db/db mice; [8]): 187 mg/dL
- blood glucose, maximal effect at 24 h (db/db mice; db/db mice, 3 and 10 nmol/kg single sc dose): 129 mg/dL
- body weight response (db/db mice; db/db mice, single SC dose): greater weight loss as compared to semaglutide
- days on which feeding was suppressed (db/db mice; db/db mice, single SC dose): days 1 through 4
- PS-20 required per mg of ALT-801 to achieve the CMC ([2]; F58 buffer): at least 0.66 mg
- Polysorbate 20 CMC Value, 5.0 mg/ml ALT-801, Average ([2]; F58 buffer pH 7.7): 4.01 mg/mL
- Polysorbate 20 CMC Value, 10.0 mg/ml ALT-801, Average ([2]; F58 buffer pH 7.7): 7.30 mg/mL
- Polysorbate 20 CMC Value, 5.0 mg/ml ALT-801 [2, 9]: 4.00 mg/mL and 4.02 mg/mL
- Polysorbate 20 CMC Value, 10.0 mg/ml ALT-801 [2, 9]: 7.30 mg/mL and 7.29 mg/mL
- Cmax ([3]; 20 nmol/kg SC, listed as 17): 890 ng/mL
- MRT ([3]; 20 nmol/kg SC, listed as 17): 84 h
- clinical observations ([3]; 20 nmol/kg sc and iv, listed as 17): No abnormal clinical observations; also recorded: no clinical observations reported
- Cmax ([3]; male, Yucatan, pig (miniature swine, Sus scrofa), plasma, sc, 20 nmol/kg, 20 nmol/kg SC, read-out: Cmax): 887 ng/mL
- MRT ([3]; male, Yucatan, pig (miniature swine, Sus scrofa), plasma, sc, 20 nmol/kg, 20 nmol/kg SC, read-out: MRT): 86 h
- Tmax [3, 10]: 52 h
- half-life [3, 10]: 52 h
- bioavailability ([3]; pig, in vivo, sc, 20 nmol/kg, read-out: bioavailability of subcutaneous vs intravenous administration): 73%
- PS-80 required per mg of ALT-801 to achieve the CMC [4]: at least 1.03 mg
- Initial Conc, Mean (plasma proteins of human; 15000 ng/mL nominal): 7610 ng/mL
- Initial Conc, Rep (plasma proteins of human; [5]): 7580 ng/mL and 7630 ng/mL and 7780 ng/mL
- Percentage of ALT-801 Bound, Mean (plasma proteins of human; 15000 ng/mL, 37° C., 6 hours): 99.8%
- Percentage of ALT-801 Unbound, Mean (plasma proteins of human; 15000 ng/mL, 37° C., 6 hours): 0.213%
- Percentage of ALT-801 Bound (plasma proteins of human; [6]): 99.9% and 99.7%
- Percentage of ALT-801 Unbound (plasma proteins of human; [6]): 0.117% and 0.309%
- Ultracentrifugate, Mean (plasma proteins of human; 37° C., 6 hours): 16.2 ng/mL
- Ultracentrifugate, Rep (plasma proteins of human; [7]): BLQ and 8.87^b ng/mL and 23.5 ng/mL
- Percent of Theoretical (plasma proteins of human; initial conc vs 15000 ng/mL): 50.7%
